# Results published in paper PMC4609575 (The international journal of biochemistry & cell biology, 2010).
# Chains of the proteins cited; added tags and fusions are not shown. Residues count along the entry.
# UniProt P30926, 22-498: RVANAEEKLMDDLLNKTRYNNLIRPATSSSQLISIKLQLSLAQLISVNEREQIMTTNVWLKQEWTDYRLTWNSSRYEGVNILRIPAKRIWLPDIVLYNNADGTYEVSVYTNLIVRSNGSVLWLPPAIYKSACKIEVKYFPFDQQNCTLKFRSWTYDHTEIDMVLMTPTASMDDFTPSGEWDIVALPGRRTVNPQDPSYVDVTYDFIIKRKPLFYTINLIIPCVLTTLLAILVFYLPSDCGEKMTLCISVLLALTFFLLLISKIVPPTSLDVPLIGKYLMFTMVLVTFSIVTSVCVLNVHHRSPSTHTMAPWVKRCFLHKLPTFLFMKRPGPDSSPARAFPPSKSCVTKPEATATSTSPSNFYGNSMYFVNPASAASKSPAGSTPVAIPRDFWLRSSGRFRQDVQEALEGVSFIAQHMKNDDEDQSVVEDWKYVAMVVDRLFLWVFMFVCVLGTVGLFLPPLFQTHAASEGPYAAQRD
# UniProt P32297, 32-505: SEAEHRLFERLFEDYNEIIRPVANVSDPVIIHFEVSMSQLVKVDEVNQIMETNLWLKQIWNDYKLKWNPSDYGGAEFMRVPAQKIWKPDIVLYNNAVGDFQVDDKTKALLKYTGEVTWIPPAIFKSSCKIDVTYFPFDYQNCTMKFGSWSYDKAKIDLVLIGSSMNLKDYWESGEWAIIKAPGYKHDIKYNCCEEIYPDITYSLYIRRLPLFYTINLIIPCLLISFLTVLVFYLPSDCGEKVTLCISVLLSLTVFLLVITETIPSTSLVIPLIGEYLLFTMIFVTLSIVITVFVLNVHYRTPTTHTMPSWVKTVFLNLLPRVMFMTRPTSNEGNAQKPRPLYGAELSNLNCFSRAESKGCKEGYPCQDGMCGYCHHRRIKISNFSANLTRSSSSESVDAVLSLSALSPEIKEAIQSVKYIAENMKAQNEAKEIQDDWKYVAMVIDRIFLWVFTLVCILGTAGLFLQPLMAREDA
# Where two headings read alike, the source gives them in different places.
# Legend:
# [1] = target: T1, hα3β4 AChR (Homo sapiens, UniProt P30926+P32297); format: binding; conditions: Desensitized state (1 µM (−)-nicotine), radioligand [3H]TCP 40 nM
# [2] = target: T1, hα3β4 AChR; assay: Binding kinetics by non-linear chromatography on the CMAC-hα3β4 AChR column
# [3] = target: T1, hα3β4 AChR; format: binding; conditions: Desensitized state (1 µM (−)-nicotine), radioligand [3H]ibogaine 20 nM
# [4] = target: T1, hα3β4 AChR; assay: Equilibrium binding of [3H]ibogaine to hα3β4 AChR membranes; conditions: resting (no ligand) state, Rosenthal-Scatchard plot
substance,measurement,setting,value
"7-ethyl-6,2,7,8,9,10,12,13-octahydro-2-methoxy-6,9-methano 5H-pyrido(1′,2′:1,2-azepine (4,5-)indole) [Ibogaine]",IC50,[1],3.6 ± 0.5 µM
same,Ka (association constant),[2],3.84 ± 0.04 µM⁻¹
same,Kd = 1/Ka,"[2]; from kinetic results, non-linear chromatography",~ 0.3 µM
same,IC50,[3],370 ± 40 nM
same,Kd,[4],~500 nM
